# Target: Rat Aldose Reductase (Rattus norvegicus, UniProt P07943)
# Assay: Rat Aldose Reductase Inhibition
# Type: biochemical
# Description: Compounds A to U were tested for their ability to inhibit aldose reductase enzyme activity via the procedure of P. F. Kador, L. O. Merola and J. H. Kinoshita as described in Documenta Ophthamologica, 18 (1979) 117.
# *According to the procedures of P. F. Kador and N. E. Sharpless,
# Biophysical Chemistry, 8 (1978) 81-85; P. F. Kador, L. O. Merola and J. H
# Kinoshita Documenta Ophthamologica, 18 (1979) 117.
row,IC50,SMILES
1,430 nM,"O=C1NC(=O)C2(CCOc3ccc(F)cc32)N1 (racemic) [Sarges Racemic, dl-spiro-(6-fluorochroman-4,4'-imidazolidine)-2',5'-dione, reference compound]"
2,150 nM,"O=C1NC(=O)C2(CCOc3ccc(F)cc32)N1 (centres unmarked) [Sarges Resolved, dSpiro-(6-fluorochroman-4,4imidazolidine)-2',5dione, reference compound]"
